Source: patent US10716795B2, “Steroid analogues for neuroprotection” (Emory University, priority 2008, dated 2020)

Target: T1, classical progesterone receptor (PR) (Homo sapiens, UniProt P06401)
T1 sequence (P06401 1-933): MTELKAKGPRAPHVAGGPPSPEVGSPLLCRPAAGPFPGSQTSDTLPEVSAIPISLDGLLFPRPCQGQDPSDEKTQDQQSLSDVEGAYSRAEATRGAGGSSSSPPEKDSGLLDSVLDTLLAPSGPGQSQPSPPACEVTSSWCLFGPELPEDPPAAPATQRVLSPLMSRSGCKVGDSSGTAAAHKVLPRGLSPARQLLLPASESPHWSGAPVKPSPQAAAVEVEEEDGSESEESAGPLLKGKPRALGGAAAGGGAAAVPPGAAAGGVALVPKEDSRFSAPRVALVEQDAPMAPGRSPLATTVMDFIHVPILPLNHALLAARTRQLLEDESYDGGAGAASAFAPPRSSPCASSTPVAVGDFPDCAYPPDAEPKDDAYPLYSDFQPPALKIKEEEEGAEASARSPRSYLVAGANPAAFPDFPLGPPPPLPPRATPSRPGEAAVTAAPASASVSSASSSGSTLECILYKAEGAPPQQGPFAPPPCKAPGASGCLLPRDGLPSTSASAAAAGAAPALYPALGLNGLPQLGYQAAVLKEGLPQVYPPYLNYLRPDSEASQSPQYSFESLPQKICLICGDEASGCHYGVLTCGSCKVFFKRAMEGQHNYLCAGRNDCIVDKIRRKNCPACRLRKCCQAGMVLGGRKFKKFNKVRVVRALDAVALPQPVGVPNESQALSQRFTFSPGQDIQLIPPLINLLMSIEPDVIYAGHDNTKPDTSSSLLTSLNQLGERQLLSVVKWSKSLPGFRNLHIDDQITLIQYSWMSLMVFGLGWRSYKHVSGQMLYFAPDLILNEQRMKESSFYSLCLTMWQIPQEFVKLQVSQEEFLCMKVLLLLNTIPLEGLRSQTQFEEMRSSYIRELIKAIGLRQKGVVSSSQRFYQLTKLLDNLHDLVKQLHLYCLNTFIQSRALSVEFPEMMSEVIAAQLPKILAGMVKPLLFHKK
Experiment: binding to the classical progesterone receptor

Question: How did the “affinity for progesterone receptor” value turn out when CC(=O)[C@@H]1CCC2C3CCC4=CC(=O)CC[C@@]4(C)C3CC[C@]21C (stereo partly drawn) [ent-PROG, ent-Progesterone] was run?
Answer: moderate affinity
